Assay results taken from paper PMC10832398 (Molecular cancer therapeutics, 2023).

System: HS01 cells
Assay: Combination matrix cell viability assay
Assay type: cell-based, human
Conditions: omipalisib/dasatinib matrix, Fig. 1A (HS01, HS02)

How did the synergistic doses turn out when `Cc1nc(Nc2ncc(C(=O)Nc3c(C)cccc3Cl)s2)cc(N2CCN(CCO)CC2)n1` [Dasatinib, dasatinib] was run?
Its synergistic doses is 156 to 625 nM.
